This is an account of results in patent publication US20230098111A1, “COMPOSITIONS AND METHODS TO TREAT NEUROLOGICAL DISEASES” (University of Southern California, priority 2020, published 2023).

In the experiment the test system is C9ORF72 ALS/FTD iMNs.

Turning to `Nc1ccc(C(=O)Nc2cccc(-c3nc(N4CCOCC4)c4oc5ncccc5c4n3)c2)cn1` [YM201636], the “C9ORF72 ALS/FTD iMN survival” value was “rescued C9ORF72 and sporadic ALS”.
